In ChEMBL document CHEMBL4265952, “One-pot, multi-component synthesis and structure-activity relationships of peptoid-based histone deacetylase (HDAC) inhibitors targeting malaria parasites” (Eur J Med Chem, 2018):

How the values were obtained:
[1] = system: Plasmodium falciparum; experiment: microbe, parasite or virus in culture; details: Dd2, 3 h
[2] = system: NFF; experiment: cells; details: Homo sapiens
[3] = in vitro; details: human, erythrocytes
[4] = in vitro; details: human, erythrocytes; remark: listed apart in the source
[5] = system: Plasmodium falciparum; experiment: microbe, parasite or virus in culture; details: 3D7, 3 h
[6] = cells; details: Homo sapiens, HepG2A16, 48 h
[7] = system: Plasmodium falciparum; experiment: microbe, parasite or virus in culture; assay type: functional, organism-based; details: NF54, 48 h
[8] = system: Plasmodium falciparum; experiment: Gametocytocidal activity against transgenic GFP-fused Plasmodium falciparum NF54 late stage gametocytes after 72 hrs by Mitotracker Red CMH2XRos staining based imaging method; assay type: functional, organism-based; details: NF54, 72 h
[9] = system: Plasmodium falciparum; experiment: microbe, parasite or virus in culture; assay type: functional, organism-based; details: NF54, 72 h

Structure (SMILES) | IC50 [1] | IC50 [2] | selectivity ratio [3] | selectivity ratio [4] | IC50 [5] | IC50 [6] | IC50 [7] | IC50 [8] | IC50 [9]
CCCCNC(=O)CN(Cc1ccc(C(=O)NO)cc1)C(=O)c1cccc(N(C)C)c1 | 43 nM | > 10 µM | 196 to 233 | 196 to 233 | 51 nM |  |  |  | 
Cc1ccc(C(=O)N(CC(=O)NC2CCCCC2)Cc2ccc(C(=O)NO)cc2)cc1 | 11 nM | > 3 µM |  |  | 16 nM | 12.3 µM |  |  | 
CC(C)c1ccc(C(=O)N(CC(=O)NC2CCCCC2)Cc2ccc(C(=O)NO)cc2)cc1 | 1 nM | > 4 µM |  |  | 4 nM | 9.99 µM | 7.74 µM |  | 
CN(C)c1ccc(C(=O)N(CC(=O)NC(C)(C)C)Cc2ccc(C(=O)NO)cc2)cc1 | 14 nM | 4.48 µM |  |  | 11 nM | 11.9 µM | 7.69 µM | 2.72 µM | 4.41 µM
Cc1ccc(NC(=O)CN(Cc2ccc(C(=O)NO)cc2)C(=O)c2ccc(N(C)C)cc2)cc1 | 20 nM | 5.38 µM |  |  |  | 5.81 µM | 4.35 µM | 3.89 µM | 5.9 µM
CN(C)c1cccc(C(=O)N(CC(=O)NC2CCCCC2)Cc2ccc(C(=O)NO)cc2)c1 | 37 nM | > 10 µM | 227 to 270 | 227 to 270 | 44 nM |  |  |  | 
CC(C)(C)NC(=O)CN(Cc1ccc(C(=O)NO)cc1)C(=O)c1ccccc1 | 54 nM | > 10 µM | 63 to 185 | 63 to 185 | 158 nM |  |  |  | 
O=C(CN(Cc1ccc(C(=O)NO)cc1)C(=O)c1cccc2ccccc12)NC1CCCCC1 |  | > 10 µM |  |  |  | > 50 µM |  |  | 
Cc1cc(C)cc(C(=O)N(CC(=O)NC2CCCCC2)Cc2ccc(C(=O)NO)cc2)c1 | 33 nM | > 10 µM |  |  | 21 nM | 21.2 µM | 15.7 µM | 5.25 µM | 8.37 µM
Cc1ccc(C(=O)N(CC(=O)NC2CCCCC2)Cc2ccc(C(=O)NO)cc2)cc1C | 21 nM | > 10 µM |  |  |  | 22 µM | 13.1 µM |  | 
Cc1ccc(NC(=O)CN(Cc2ccc(C(=O)NO)cc2)C(=O)c2cccc(N(C)C)c2)cc1 | 49 nM | > 10 µM | 204 to 263 | 204 to 263 | 38 nM |  |  |  | 
CN(C)c1cccc(C(=O)N(CC(=O)NC(C)(C)C)Cc2ccc(C(=O)NO)cc2)c1 | 29 nM | > 10 µM | 213 to 345 | 213 to 345 | 47 nM |  |  |  | 
CC(C)(C)NC(=O)CN(Cc1ccc(C(=O)NO)cc1)C(=O)c1cccc2ccccc12 | 51 nM | > 10 µM | 169 to 196 | 169 to 196 | 59 nM |  |  |  | 
Cc1ccc(NC(=O)CN(Cc2ccc(C(=O)NO)cc2)C(=O)c2cc(C)cc(C)c2)cc1 |  |  |  |  | 33 nM |  |  |  | 
Cc1cc(C)cc(C(=O)N(CC(=O)NC(C)(C)C)Cc2ccc(C(=O)NO)cc2)c1 | 41 nM | > 10 µM | 200 to 244 | 200 to 244 | 50 nM |  |  |  | 
CC1=C[C@@H](C)[C@H]2[C@@H]3C(=O)C(Cl)(Cl)C(=O)[C@H](C)C(=O)O[C@@H](C)/C=C/C=C\[C@@H](C)[C@@H]3C=C[C@@H]2C1 |  |  |  |  |  |  | 0.041 µM |  | 
CCCCNC(=O)CN(Cc1ccc(C(=O)NO)cc1)C(=O)c1ccc(N(C)C)cc1 | 14 nM | > 2 µM |  |  | 14 nM | 6.99 µM |  |  | 
Cc1cccc(C(=O)N(CC(=O)NC2CCCCC2)Cc2ccc(C(=O)NO)cc2)c1 | 48 nM | > 10 µM | 208 to 233 | 208 to 233 | 43 nM |  |  |  | 
Cc1ccc(NC(=O)CN(Cc2ccc(C(=O)NO)cc2)C(=O)c2ccccc2)cc1 | 53 nM | > 10 µM | 149 to 189 | 149 to 189 | 67 nM |  | 9.41 µM |  | 
CCCCNC(=O)CN(Cc1ccc(C(=O)NO)cc1)C(=O)c1cc(C)cc(C)c1 | 56 nM | > 10 µM | 178 to 213 | 178 to 213 | 47 nM |  |  |  | 
Cc1ccc(C(=O)N(CC(=O)NC(C)(C)C)Cc2ccc(C(=O)NO)cc2)cc1C | 12 nM | > 10 µM |  |  | 20 nM | 25.9 µM |  |  | 
O=C(CN(Cc1ccc(C(=O)NO)cc1)C(=O)c1ccccc1)NC1CCCCC1 | 118 nM | > 10 µM | 85 to 169 | 85 to 169 | 59 nM |  |  |  | 
Cc1ccccc1C(=O)N(CC(=O)NC1CCCCC1)Cc1ccc(C(=O)NO)cc1 | 57 nM | > 10 µM | 132 to 175 | 132 to 175 | 76 nM |  |  |  | 
CN(C)c1ccc(C(=O)N(CC(=O)NC2CCCCC2)Cc2ccc(C(=O)NO)cc2)cc1 | 15 nM | 5.89 µM |  |  | 9 nM | 7.8 µM | 2.46 µM | 1.81 µM | 2.36 µM
